The entries are a selection whose mix differs from that of the whole data set. Some tests of the compounds listed are not included; inactive here does not mean inactive elsewhere. Active and inactive are the calls of the source. Rule as the data show it: active = inhibition mostly above about 24% (no sharp cut-off); inactive = mostly below about 32%.
Test: NALP1 inflammasome inhibitors in reconstituted yeast, colorimetric, S. cerevisiae, triplicate retest (AID 2071)
Conditions: S. cerevisiae NALP1/ASC/caspase-1 growth, X-gal OD620, 72 h; at 10 µM; hits give high values

Q: For CN1[C@@H]2CC[C@H]1CC(OC(=O)C(O)(c1ccccc1)c1ccccc1)C2 (some centres undefined), which inhibition is on record?
A: inactive: 5.8%

Q: With O=C(NCC1(N2CCCCC2)CCCCC1)c1cc([N+](=O)[O-])ccc1Cl as the compound, how does the inhibition read?
A: inactive: -3.9%

Q: For Cc1ccc(C(=O)NCC2(N3CCCCC3)CCCCC2)cc1, which inhibition is on record?
A: inactive: 26.1%

Q: With CC(C)N1C(=O)CC2(CCN(CCOC(=O)C(O)(c3ccccc3)c3ccccc3)CC2)C1=O as the compound, how does the inhibition read?
A: inactive: -8%

Q: With CCN(CC)CC(C)C(C)OC(=O)C(O)(c1ccccc1)c1ccccc1 (centres undefined) as the compound, how does the inhibition read?
A: inactive: -3.8%

Q: Which inhibition does the source give for COc1cc(SC)ccc1C(=O)NCC1(N(C)C)CCCCC1 here?
A: inactive: 17.4%

Q: With Cc1ccccc1C(=O)NCC1(N2CCCCC2)CCCCC1 as the compound, how does the inhibition read?
A: inactive: 7.9%

Q: Which inhibition does the source give for CN(C)C1CCCC1OC(=O)C(O)(c1ccccc1)c1ccccc1 (centres undefined) here?
A: inactive: -5.5%

Q: For CN(C)c1ccc(C(=O)NCC2(N(C)C)CCCCC2)cc1, which inhibition is on record?
A: inactive: 26%

Q: Which inhibition does the source give for Cc1cc(C(=O)NCC2(N3CCCCC3)CCCCC2)ccc1[N+](=O)[O-] here?
A: inactive: 13.7%

Q: For CCN1CCCC(OC(=O)C2(O)c3ccccc3C=Cc3ccccc32)C1 (centres undefined), which inhibition is on record?
A: inactive: 20.5%

Q: For O=C(NCC1(N2CCCCC2)CCCCC1)c1cccc(Br)c1, which inhibition is on record?
A: inactive: 3.7%

Q: Which inhibition does the source give for COc1ccc(C(=O)NCC2(N(C)C)CCCCC2)cc1 here?
A: inactive: 13.1%

Q: For C=CCN1CCN(CCOC(=O)C(O)(c2ccccc2)c2ccccc2)CC1, which inhibition is on record?
A: inactive: 9.3%

Q: For O=C(NCC1(N2CCCCC2)CCCCC1)c1cc(F)c(F)cc1Cl, which inhibition is on record?
A: inactive: 7%

Q: Which inhibition does the source give for COc1cc(C(=O)NCC2(N(C)C)CCCCC2)c([N+](=O)[O-])cc1OC here?
A: inactive: 28.1%

Q: Which inhibition does the source give for CN(C)C1(CNC(=O)c2ccc(Br)cc2)CCCCC1 here?
A: inactive: 25.7%

Q: With O=C(NCC1(N2CCCCC2)CCCCC1)c1cccc(Cl)c1 as the compound, how does the inhibition read?
A: inactive: 10.3%

Q: With COc1cccc(C(=O)NCC2(N3CCCCC3)CCCCC2)c1 as the compound, how does the inhibition read?
A: inactive: 16.4%

Q: For COc1ccc(Cl)cc1C(=O)NCC1(N(C)C)CCCCC1, which inhibition is on record?
A: inactive: 7.4%

Q: For O=C(OC1CN2CCC1CC2)C(CO)(c1ccccc1)c1ccccc1 (centres undefined), which inhibition is on record?
A: inactive: 6.2%

Q: Which inhibition does the source give for CN(C)c1cccc(C(=O)NCC2(N(C)C)CCCCC2)c1 here?
A: inactive: 14.8%

Q: For CC(C)Oc1ccc(C(=O)NCC2(N(C)C)CCCCC2)cc1, which inhibition is on record?
A: inactive: 10.1%

Q: Which inhibition does the source give for COc1ccc(Br)c(C(=O)NCC2(N3CCCCC3)CCCCC2)c1 here?
A: inactive: -0.7%

From PubChem BioAssay AID2071 (Sanford-Burnham Center for Chemical Genomics, 2009)
